Assay results published in FireProtDB.

B1: Tyrosine-protein kinase JAK1, P23458 (parent)
chain: MQYLNIKEDCNAMAFCAKMRSSKKTEVNLEAPEPGVEVIFYLSDREPLRLGSGEYTAEELCIRAAQACRISPLCHNLFALYDENTKLWYAPNRTITVDDKMSLRLHYRMRFYFTNWHGTNDNEQSVWRHSPKKQKNGYEKKKIPDATPLLDASSLEYLFAQGQYDLVKCLAPIRDPKTEQDGHDIENECLGMAVLAISHYAMMKKMQLPELPKDISYKRYIPETLNKSIRQRNLLTRMRINNVFKDFLKEFNNKTICDSSVSTHDLKVKYLATLETLTKHYGAEIFETSMLLISSENEMNWFHSNDGGNVLYYEVMVTGNLGIQWRHKPNVVSVEKEKNKLKRKKLENKHKKDEEKNKIREEWNNFSYFPEITHIVIKESVVSINKQDNKKMELKLSSHEEALSFVSLVDGYFRLTADAHHYLCTDVAPPLIVHNIQNGCHGPICTEYAINKLRQEGSEEGMYVLRWSCTDFDNILMTVTCFEKSEQVQGAQKQFKNFQIEVQKGRYSLHGSDRSFPSLGDLMSHLKKQILRTDNISFMLKRCCQPKPREISNLLVATKKAQEWQPVYPMSQLSFDRILKKDLVQGEHLGRGTRTHIYSGTLMDYKDDEGTSEEKKIKVILKVLDPSHRDISLAFFEAASMMRQVSHKHIVYLYGVCVRDVENIMVEEFVEGGPLDLFMHRKSDVLTTPWKFKVAKQLASALSYLEDKDLVHGNVCTKNLLLAREGIDSECGPFIKLSDPGIPITVLSRQECIERIPWIAPECVEDSKNLSVAADKWSFGTTLWEICYNGEIPLKDKTLIEKERFYESRCRPVTPSCKELADLMTRCMNYDPNQRPFFRAIMRDINKLEEQNPDIVSEKKPATEVDPTHFEKRFLKRIRDLGEGHFGKVELCRYDPEGDNTGEQVAVKSLKPESGGNHIADLKKEIEILRNLYHENIVKYKGICTEDGGNGIKLIMEFLPSGSLKEYLPKNKNKINLKQQLKYAVQICKGMDYLGSRQYVHRDLAARNVLVESEHQVKIGDFGLTKAIETDKEYYTVKDDRDSPVFWYAPECLMQSKFYIASDVWSFGVTLHELLTYCDSDSSPMALFLKMIGPTHGQMTVTRLVNTLKEGKRLPCPPNCPDEVYQLMRKCWEFQPSNRTSFQNLIEGFEALLK
B2: Alpha-1-antitrypsin, P01009 (parent)
chain: MPSSVSWGILLLAGLCCLVPVSLAEDPQGDAAQKTDTSHHDQDHPTFNKITPNLAEFAFSLYRQLAHQSNSTNIFFSPVSIATAFAMLSLGTKADTHDEILEGLNFNLTEIPEAQIHEGFQELLRTLNQPDSQLQLTTGNGLFLSEGLKLVDKFLEDVKKLYHSEAFTVNFGDTEEAKKQINDYVEKGTQGKIVDLVKELDRDTVFALVNYIFFKGKWERPFEVKDTEEEDFHVDQVTTVKVPMMKRLGMFNIQHCKKLSSWVLLMKYLGNATAIFFLPDEGKLQHLENELTHDIITKFLENEDRRSASLHLPKLSITGTYDLKSVLGQLGITKVFSNGADLSGVTEEAPLKLSKAVHKAVLTIDEKGTEAAGAMFLEAIPMSIPPEVKFNKPFVFLMIEQNTKSPLFMGKVVNPTQK

Variants of: B1
Conditions: Homo sapiens; pH 8; Thermal; DSF; TRIS 20 mM; MgCl2 NaCl 1mM 500mM; reversible: Unknown; structure 4L00; whole UniProt chain shown
For K622A, the Tm was 53.3 °C and the “change of melting temperature, mutant - wild type (higher = more stable)” value was 13 °C.

Variants of: B2
Conditions: Homo sapiens; pH 8; Thermal; Fluorescence; Tris-HCl 50 mM; NaCl 50 mM; reversible: no; structure 1QLP; whole UniProt chain shown
For MPSSVSWGILLLAGLCCLVPVSLAEDPQGDAAQKTDTSHHDQDHPTFNKITPNLAEFAFSLYRQLAHQSNSTNICFSPVSIATAFAMLSLGTKADTHDEILEGLNFNLTEIPEAQIHEGFQELLRTLNQPDSQLQLTTGNGLFLSEGLKLVDKFLEDVKKLYHSEAFTVNFGDTEEAKKQINDYVEKGTQGKIVDLVKELDRDTVFALVNYIFFKGKWERPFEVKDTEEEDFHVDQVTTVKVPMMKRLGMFNIQHCKKLSSWVLLMKYLGNATAIFFLPDEGKLQHLENELTHDIITKFLENEDRRSASLHLPKLSITGTYDLKSVLGQLGITKVFSNGADLSGVTEEAPLKLSKAVHKAVLTIDEKGTEAAGAMFLEAIPMSIPPEVKFNKPFVFLMIEQNTKSPLFMGKVVNPTQK [F75C], the Tm was 57 °C.
